# Values quoted from earlier work in patent US20250235417A1, “Compositions for acute and chronic wounds” (DEBx Medical Holding B.V., priority 2021, published 2025).
# Settings: cited from earlier work
substance,measurement,value
"Phenol sulphonic acid (o, m, p)",pKa,<−3
